For test [1], the target named is Melanocortin receptor 4 (Homo sapiens, UniProt P32245, L106P). Briefly: Agonist activity at human melanocortin-4 receptor L106P mutant expressed in HEK293 cells co-transfected with CRE/beta-galactosidase reporter gene assessed as stimulatory response after 6 hrs. The class given is functional, cell-based. (In general: A reporter such as luciferase makes a cellular process visible.)

Chains of the proteins cited; added tags and fusions are not shown.
UniProt P32245, whole entry L106P: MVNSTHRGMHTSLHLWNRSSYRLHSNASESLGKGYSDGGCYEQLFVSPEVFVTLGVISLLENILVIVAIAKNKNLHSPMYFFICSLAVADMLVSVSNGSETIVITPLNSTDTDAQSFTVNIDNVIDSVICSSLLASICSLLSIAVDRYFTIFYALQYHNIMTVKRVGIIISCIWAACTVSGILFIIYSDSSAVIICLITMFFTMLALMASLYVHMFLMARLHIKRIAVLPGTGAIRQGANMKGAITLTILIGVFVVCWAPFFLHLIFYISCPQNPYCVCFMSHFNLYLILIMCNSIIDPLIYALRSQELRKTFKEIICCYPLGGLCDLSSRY
UniProt P32245, whole entry: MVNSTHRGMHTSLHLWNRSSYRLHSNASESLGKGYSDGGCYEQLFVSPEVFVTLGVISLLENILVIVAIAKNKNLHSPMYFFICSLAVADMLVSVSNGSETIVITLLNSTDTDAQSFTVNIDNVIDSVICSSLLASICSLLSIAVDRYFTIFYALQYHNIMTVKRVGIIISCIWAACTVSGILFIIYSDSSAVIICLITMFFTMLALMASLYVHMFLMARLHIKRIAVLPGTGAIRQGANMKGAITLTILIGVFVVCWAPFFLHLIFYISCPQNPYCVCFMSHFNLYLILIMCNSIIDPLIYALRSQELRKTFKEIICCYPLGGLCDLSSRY

In test [2] the target is Melanocortin receptor 4 (Homo sapiens, UniProt P32245). Kind of test: Agonist activity at wild type human melanocortin-4 receptor expressed in HEK293 cells co-transfected with CRE/beta-galactosidase reporter gene assessed as stimulatory response after 6 hrs. In kind it is functional, cell-based.

Each structure is given as a SMILES string.

For `CC(=O)N[C@@H](Cc1cnc[nH]1)C(=O)N[C@H](Cc1ccccc1)C(=O)N[C@@H](CCCN=C(N)N)C(=O)N[C@@H](Cc1c[nH]c2ccccc12)C(N)=O`, the results for the EC50 on Melanocortin receptor 4 [1] and at Melanocortin receptor 4 [2] were 0.191 µM and 0.00093 µM, respectively.

(Values after ChEMBL document CHEMBL3286334.)
